These results are taken from ChEMBL document CHEMBL5360528, “A systematic review on the kappa opioid receptor and its ligands: New directions for the treatment of pain, anxiety, depression, and drug abuse” (Eur J Med Chem, 2022).

Protein sequences, listed by entry. Tags and fused reporters are not part of them. Lines headed by an entry give the natural chain unless they say otherwise; changes in a name come on top.
UniProt P41145: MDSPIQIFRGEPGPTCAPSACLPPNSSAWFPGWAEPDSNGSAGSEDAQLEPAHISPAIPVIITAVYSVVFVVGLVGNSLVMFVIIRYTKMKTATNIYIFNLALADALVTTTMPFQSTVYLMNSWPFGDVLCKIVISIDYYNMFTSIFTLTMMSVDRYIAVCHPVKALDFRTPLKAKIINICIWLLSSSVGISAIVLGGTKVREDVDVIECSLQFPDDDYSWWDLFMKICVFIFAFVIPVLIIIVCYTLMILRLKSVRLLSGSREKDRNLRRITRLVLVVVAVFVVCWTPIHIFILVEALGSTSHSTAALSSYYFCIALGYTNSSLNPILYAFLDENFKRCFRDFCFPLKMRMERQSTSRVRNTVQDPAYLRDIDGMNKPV
UniProt P41144: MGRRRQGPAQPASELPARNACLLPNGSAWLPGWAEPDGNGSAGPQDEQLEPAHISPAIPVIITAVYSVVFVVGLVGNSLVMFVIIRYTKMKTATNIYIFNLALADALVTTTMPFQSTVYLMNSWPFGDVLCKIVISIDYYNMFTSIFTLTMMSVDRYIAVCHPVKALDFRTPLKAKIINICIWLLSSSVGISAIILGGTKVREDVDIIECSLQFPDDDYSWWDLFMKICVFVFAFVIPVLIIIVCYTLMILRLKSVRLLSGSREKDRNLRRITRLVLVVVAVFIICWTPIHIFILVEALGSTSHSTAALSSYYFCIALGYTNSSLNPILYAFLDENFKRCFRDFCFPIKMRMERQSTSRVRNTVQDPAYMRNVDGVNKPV

Assay [1] has as its target Kappa-type opioid receptor (Homo sapiens, UniProt P41145). In words: Binding affinity to KOR (unknown origin) assessed as inhibition constant.
For assay [2], the target named is Kappa-type opioid receptor (Cavia porcellus, UniProt P41144). In words: Agonist activity at KOR in guinea pig brain membranes assessed as stimulation of [35S]GTPgammaS binding measured after 1 hr by liquid scintillation counting analysis relative to control. The class given is functional, cell membranes, Membrane. For orientation: Binding of GTPγS marks nucleotide exchange on a G protein.

The term Ki denotes a measure of affinity in units of concentration, obtained from inhibition or displacement. One may read the EC50 as the concentration at which the effect is half-maximal. As for `C[C@H]1[C@H]2Cc3ccc(C(N)=O)cc3[C@@]1(C)CCN2CC1CC1`, the Ki in assay [1] was 0.42 nM. Moreover, in assay [2], the 50% effective concentration (EC50) was 8.8 nM.
